Reference: US20210261569A1, “FUSED HETEROCYCLIC DERIVATIVES HAVING SELECTIVE BACE1 INHIBITORY ACTIVITY” (Shionogi & Co., Ltd., priority 2018, published 2021)

The chains behind the UniProt entries cited, without tags or fusion partners. Residues count along the entry.
UniProt P56817, 46-501 limits assumed: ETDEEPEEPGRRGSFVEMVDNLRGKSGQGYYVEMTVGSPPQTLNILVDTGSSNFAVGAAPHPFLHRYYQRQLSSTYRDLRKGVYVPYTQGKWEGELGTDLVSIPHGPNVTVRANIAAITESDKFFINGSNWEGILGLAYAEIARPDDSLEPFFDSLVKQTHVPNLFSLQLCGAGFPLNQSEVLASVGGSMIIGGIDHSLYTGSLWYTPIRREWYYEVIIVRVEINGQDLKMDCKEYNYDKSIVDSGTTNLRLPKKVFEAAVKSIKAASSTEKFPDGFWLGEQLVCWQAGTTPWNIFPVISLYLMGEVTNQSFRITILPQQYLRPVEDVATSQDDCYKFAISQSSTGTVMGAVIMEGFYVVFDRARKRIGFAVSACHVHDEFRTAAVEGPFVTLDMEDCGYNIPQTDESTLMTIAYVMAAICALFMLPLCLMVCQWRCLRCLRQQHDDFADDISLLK
UniProt P08183, whole entry: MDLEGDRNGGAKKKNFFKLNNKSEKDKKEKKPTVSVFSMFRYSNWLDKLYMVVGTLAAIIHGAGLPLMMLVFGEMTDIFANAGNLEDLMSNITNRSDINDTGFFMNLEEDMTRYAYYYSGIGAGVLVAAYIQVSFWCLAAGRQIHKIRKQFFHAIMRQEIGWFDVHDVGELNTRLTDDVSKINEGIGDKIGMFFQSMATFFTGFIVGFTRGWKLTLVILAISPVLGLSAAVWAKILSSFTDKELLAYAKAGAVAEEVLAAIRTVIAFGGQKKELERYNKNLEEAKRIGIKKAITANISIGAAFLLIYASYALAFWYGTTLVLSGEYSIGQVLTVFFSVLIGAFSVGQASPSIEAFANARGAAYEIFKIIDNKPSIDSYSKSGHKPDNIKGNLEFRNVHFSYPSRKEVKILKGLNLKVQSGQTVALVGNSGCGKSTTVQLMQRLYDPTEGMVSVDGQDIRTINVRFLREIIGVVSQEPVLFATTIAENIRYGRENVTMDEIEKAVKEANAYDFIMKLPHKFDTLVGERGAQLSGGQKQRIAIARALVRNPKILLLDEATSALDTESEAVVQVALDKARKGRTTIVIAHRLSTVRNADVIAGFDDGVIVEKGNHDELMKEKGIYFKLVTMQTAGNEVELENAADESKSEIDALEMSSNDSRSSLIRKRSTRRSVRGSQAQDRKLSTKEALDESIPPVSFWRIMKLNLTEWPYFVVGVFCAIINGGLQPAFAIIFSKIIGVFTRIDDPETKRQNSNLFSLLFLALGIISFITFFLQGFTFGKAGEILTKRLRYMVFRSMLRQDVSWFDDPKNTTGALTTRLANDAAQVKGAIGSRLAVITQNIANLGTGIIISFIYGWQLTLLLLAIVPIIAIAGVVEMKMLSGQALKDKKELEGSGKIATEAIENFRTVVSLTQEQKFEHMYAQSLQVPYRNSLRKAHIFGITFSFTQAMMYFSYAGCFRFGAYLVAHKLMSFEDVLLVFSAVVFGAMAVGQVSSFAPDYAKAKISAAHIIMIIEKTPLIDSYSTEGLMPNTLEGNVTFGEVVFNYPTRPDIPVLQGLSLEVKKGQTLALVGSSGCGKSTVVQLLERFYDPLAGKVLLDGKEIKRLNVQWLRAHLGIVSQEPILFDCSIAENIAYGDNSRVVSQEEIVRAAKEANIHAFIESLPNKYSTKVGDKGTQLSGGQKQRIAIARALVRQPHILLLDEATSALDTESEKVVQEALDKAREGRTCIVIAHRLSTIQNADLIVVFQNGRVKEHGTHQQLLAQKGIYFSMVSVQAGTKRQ
UniProt Q9Y5Z0, 63-518 limits assumed: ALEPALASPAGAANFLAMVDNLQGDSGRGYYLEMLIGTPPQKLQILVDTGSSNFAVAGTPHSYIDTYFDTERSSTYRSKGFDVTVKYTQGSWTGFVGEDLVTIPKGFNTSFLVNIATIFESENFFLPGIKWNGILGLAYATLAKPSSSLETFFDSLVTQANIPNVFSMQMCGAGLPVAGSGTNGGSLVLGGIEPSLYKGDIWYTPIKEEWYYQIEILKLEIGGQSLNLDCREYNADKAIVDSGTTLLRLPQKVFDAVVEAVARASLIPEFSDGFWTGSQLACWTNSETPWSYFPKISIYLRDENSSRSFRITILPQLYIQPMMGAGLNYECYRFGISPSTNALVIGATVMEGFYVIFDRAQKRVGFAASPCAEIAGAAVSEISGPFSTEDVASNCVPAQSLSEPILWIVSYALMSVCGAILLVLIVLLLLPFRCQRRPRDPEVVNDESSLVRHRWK
UniProt Q12809, whole entry: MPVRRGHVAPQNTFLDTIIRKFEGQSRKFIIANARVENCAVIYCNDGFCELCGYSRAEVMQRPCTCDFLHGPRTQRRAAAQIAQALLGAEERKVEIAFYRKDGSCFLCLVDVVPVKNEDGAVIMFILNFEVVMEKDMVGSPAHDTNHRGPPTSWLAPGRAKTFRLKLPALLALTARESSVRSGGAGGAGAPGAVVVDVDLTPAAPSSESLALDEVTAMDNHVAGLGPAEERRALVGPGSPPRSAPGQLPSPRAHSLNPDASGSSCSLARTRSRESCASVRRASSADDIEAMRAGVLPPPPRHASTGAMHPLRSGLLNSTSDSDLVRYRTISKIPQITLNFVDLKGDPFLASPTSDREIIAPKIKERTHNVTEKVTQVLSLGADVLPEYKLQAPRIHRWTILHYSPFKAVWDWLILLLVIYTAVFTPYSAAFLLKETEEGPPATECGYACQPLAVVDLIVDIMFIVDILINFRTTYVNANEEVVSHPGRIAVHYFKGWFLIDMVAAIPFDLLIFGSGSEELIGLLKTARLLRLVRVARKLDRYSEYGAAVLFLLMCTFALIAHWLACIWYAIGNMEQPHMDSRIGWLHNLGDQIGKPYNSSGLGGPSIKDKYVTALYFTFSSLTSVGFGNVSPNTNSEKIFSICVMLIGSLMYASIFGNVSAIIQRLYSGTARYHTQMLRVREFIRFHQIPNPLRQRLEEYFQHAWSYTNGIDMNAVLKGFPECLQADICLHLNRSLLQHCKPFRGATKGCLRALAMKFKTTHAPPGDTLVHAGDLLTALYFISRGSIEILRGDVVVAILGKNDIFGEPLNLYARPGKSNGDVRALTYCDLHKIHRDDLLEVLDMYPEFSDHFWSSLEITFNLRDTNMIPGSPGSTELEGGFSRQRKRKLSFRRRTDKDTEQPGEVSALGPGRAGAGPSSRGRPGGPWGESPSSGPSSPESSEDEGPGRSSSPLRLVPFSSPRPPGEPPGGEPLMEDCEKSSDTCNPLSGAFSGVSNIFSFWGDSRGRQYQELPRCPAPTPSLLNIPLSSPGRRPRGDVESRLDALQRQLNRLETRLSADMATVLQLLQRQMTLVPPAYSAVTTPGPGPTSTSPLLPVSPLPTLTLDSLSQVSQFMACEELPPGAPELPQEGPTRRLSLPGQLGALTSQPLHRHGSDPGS

Assays:
[1] = target: recombinant BACE1 protein (Homo sapiens, UniProt P56817); experiment: BACE1 biochemical FRET based assay; conditions: for Selectivity: BACE2 IC50 relative to BACE1 IC50; for IC50: read-out: BACE1 IC50, FRET, pH 5.0, 450 min at room temperature
Source text: (§1) This assay is a Fluorescence Resonance Energy Transfer Assay (FRET) based assay. The substrate for this assay is an APP derived 13 amino acids peptide that contains the ‘Swedish’ Lys-Met/Asn-Leu mutation of the amyloid precursor protein (APP) beta-site secretase cleavage site. This substrate also contains two fluorophores: (7-methoxycoumarin-4-yl) acetic acid (Mca) is a fluorescent donor with excitation wavelength at 320 nm and emission at 405 nm and 2,4-dinitrophenol (Dnp) is a proprietary quencher acceptor. […] Upon cleavage by BACE1, the fluorophore Mca is separated from the quenching group Dnp, restoring the full fluorescence yield of the donor. The increase in fluorescence is linearly related to the rate of proteolysis.
Briefly in a 384-well format recombinant BACE1 protein in a final concentration of 0.04 μg/mL was incubated for 450 minutes at room temperature with 10 μm substrate in incubation buffer (final concentrations: 33.3 mM Citrate buffer pH 5.0, 0.033% PEG, 3% DMSO) in the absence or presence of compound. Next the amount of proteolysis was directly measured by fluorescence measurement at T=0′-120′ and T=450′ (excitation at 320 nm and emission at 405 nm). Results were expressed in RFU (Relative Fluorescence Units), as difference between T450 and Tx (Tx is chosen depending on the reaction speed between 0 and 120 minutes).
(§2) A best-fit curve was fitted by a minimum sum of squares method to the plot of % Controlmin versus compound concentration. From this an IC50 value (inhibitory concentration causing 50% inhibition of activity) can be obtained.

[2] = Metabolic stability test; conditions: human liver microsomes 0.5 mg protein/mL, NADPH, 37° C.
Method: Using a commercially available pooled human liver microsomes, a compound of the present invention was reacted for a constant time, a remaining rate was calculated by comparing a reacted sample and an unreacted sample, thereby, a degree of metabolism in liver was assessed.
A reaction was performed (oxidative reaction) at 37° C. for 0 minute or 30 minutes in the presence of 1 mmol/L NADPH in 0.2 mL of a buffer (50 mmol/L Tris-HCl pH 7.4, 150 mmol/L potassium chloride, 10 mmol/L magnesium chloride) containing 0.5 mg protein/mL of human liver microsomes. After the reaction, 50 μL of the reaction solution was added to 100 μL of a methanol/acetonitrile=1/1 (v/v), mixed and centrifuged at 3000 rpm for 15 minutes. The compound of the present invention in the supernatant was quantified by LC/MS/MS or solid phase extraction (SPE)/MS, and a remaining amount of the compound of the present invention after the reaction was calculated, letting a compound amount at 0 minute reaction time to be 100%.

[3] = tested on: Abeta 1-42 in cerebrospinal fluid (CSF); experiment: Pharmacology in the beagle dog: beta-amyloid profile in cerebrospinal fluid; conditions: for % Decrease in Abeta 1-42 at 24 h(a) or 25 h(b) post dosing compared to own baseline: 24 h or 25 h
Method: Test compounds were tested to evaluate the effect on the beta-amyloid profile in cerebrospinal fluid (CSF) of dogs after a single dose, in combination with pharmacokinetic (PK) follow up and limited safety evaluation.
In the case of compounds shown below, two or 4 beagle dogs (1 or 2 male, 1 or 2 female) were dosed with vehicle (1 mL/kg of an aqueous solution of 20% cyclodextrin) and 4 beagle dogs (2 males and 2 females) per dose group were dosed with test compound at the doses indicated in the following Table in an aqueous 20% cyclodextrin solution with a concentration in mg/mL identical to the dose given in mg/kg) on an empty stomach.
CSF was taken in conscious animals directly from the lateral ventricle via a cannula which was screwed in the skull and covered with subcutaneous tissue and skin, before and at 4, 8, 25 and 49 hours after dosing. Eight hours after dosing the animals got access to their regular meal for 30 minutes. Blood was taken for PK follow up (0.5, 1, 2, 4, 8, 25 and 49 hours) and serum samples for biochemistry were taken before and at 8 and 25 h after dosing. The CSF samples were used for measurement of Abeta 1-37, Abeta 1-38, Abeta 1-40 and Abeta 1-42.

[4] = target: P-gp (MDR1 expressing LLC-PK1 cells) (Homo sapiens, UniProt P08183); experiment: P-gp substrate test; conditions: MDR1 expressing LLC-PK1 cells vs parent LLC-PK1 cells
Method: 1. MDR1 expressing LLC-PK1 cells and its parent cells were routinely cultured in Medium A (Medium 199 (Invitrogen) supplemented with 10% FBS (Invitrogen), gentamycin (0.05 mg/mL, Invitrogen) and hygromycin B (100 μg/mL, Invitrogen)) at 37° C. under 5% CO2/95% 02 gasses. For the transport experiments, these cells were seeded on Transwell (Registered trademark) insert (96-well, pore size: 0.4 μm, Coaster) at a density of 1.4×10^4 cells/insert and added Medium B (Medium 199 supplemented with 10% FBS and gentamycin at 0.05 mg/mL) to the feeder tray. These cells were incubated in a CO2 incubator (5% CO2/95% 02 gasses, 37° C.) and replace apical and basolateral culture medium every 48-72 hr after seeding. These cells were used between 4 and 6 days after seeding. 2. The medium in the culture insert seeded with MDR1 expressing cells or parent cells were removed by aspiration and rinsed by HBSS. The apical side (140 μL) or basolateral side (175 μL) was replaced with transport buffer containing reference substrates and the present invention and then an aliquot (50 μL) of transport buffer in the donor side was collected to estimate initial concentration of reference substrate and the present invention. After incubation for designed time at 37° C., an aliquot (50 μL) of transport buffer in the donor and receiver side were collected. Assay was performed by duplicate or triplicate. 3. Reference substrate and the present invention in the aliquot was quantified by LC/MS/MS.
Permeated amounts across monolayers of MDR1 expressing and parent cells were determined, and permeation coefficients (Pe) were calculated using Excel 2003 from the following equitation:
Pe (cm/sec)=Permeated amount (pmol)/area of cell membrane (cm^2)/initial concentration (nM)/incubation time (sec) Where, permeated amount was calculated from permeation concentration (nM, concentration of the receiver side) of the substance after incubation for the defined time (sec) multiplied by volume. (mL) and area of cell membrane was used 0.1433 (cm2). The efflux ratio was calculated using the following equation:
Efflux Ratio=Basolateral-to-Apical Pe/Apical-to-Basolateral Pe
The net flux was calculated using the following equation:
Net flux=Efflux Ratio in MDR1 expressing cells/Efflux Ratio in parent cells

[5] = target: recombinant BACE2 protein (Homo sapiens, UniProt Q9Y5Z0); experiment: BACE2 biochemical FRET based assay; conditions: read-out: BACE2 IC50, pH 5.0, 450 min at room temperature
Source text: as §1, with “assay” for “assay is an APP derived 13 amino acids peptide that”, “beta-secretase” for “beta-site secretase”, “the beta-secretase,” for “BACE1,”
Briefly in a 384-well format recombinant BACE2 protein in a final concentration of 0.4 μg/mL was incubated for 450 minutes at room temperature with 10 μM substrate in incubation buffer (final concentrations: 33.3 mM Citrate buffer pH 5.0, 0.033% PEG, 2% DMSO) in the absence or presence of compound. Next the amount of proteolysis was directly measured by fluorescence measurement at T=0 and T=450 (excitation at 320 nm and emission at 405 nm). Results were expressed in RFU (Relative Fluorescence Units), as difference between T450 and T0.
as §2

[6] = target: human ether-a-go-go related gene (hERG) channel (Homo sapiens, UniProt Q12809); experiment: hERG test (whole cell patch clamp, QPatch); conditions: CHO cells expressing hERG, tail peak current
Source text: For the purpose of assessing risk of an electrocardiogram QT interval prolongation, effects on delayed rectifier K+ current (IKr), which plays an important role in the ventricular repolarization process of the compound of the present invention, was studied using CHO cells expressing human ether-a-go-go related gene (hERG) channel.
A cell was retained at a membrane potential of −80 mV by whole cell patch clamp method using an automated patch clamp system (QPatch; Sophion Bioscience A/S). After application of leak potential at −50 mV, IKr induced by depolarization pulse stimulation at +20 mV for 2 seconds and, further, repolarization pulse stimulation at −50 mV for 2 seconds was recorded.
After the generated current was stabilized, extracellular solution (NaCl: 145 mmol/L, KCl: 4 mmol/L, CaCl2:2 mmol/L MgCl2:1 mmol/L, 1 mmol/L, HEPES (4-(2-hydroxyethyl)-1-piperazineethanesulfonic acid: 10 mmol/L, glucose:10 mmol/L pH=7.4) in which the compound of the present invention have been dissolved at an objective concentration was applied to the cell under the room temperature condition for 10 minutes. From the recording IKr, an absolute value of the tail peak current was measured based on the current value at the resting membrane potential using an analysis software (QPatch assay software; Sophion Bioscience A/S). Further, the % inhibition relative to the tail peak current before application of the compound of the present invention was calculated, and compared with the vehicle-applied group (0.1% dimethyl sulfoxide solution) to assess influence of the compound of the present invention on IKr.

SMILES | Selectivity [1] | IC50 [1] | Remaining rate (%) at 30 min [2] | % Decrease in Abeta 1-42 at 8 h post dosing compared to own baseline ([3]; single dose 2.5 mg/kg) | % Decrease in Abeta 1-42 at 24 h(a) or 25 h(b) post dosing compared to own baseline ([3]; single dose 2.5 mg/kg) | % Decrease in Abeta 1-42 at 49 h post dosing compared to own baseline ([3]; single dose 2.5 mg/kg, 49 h) | P-gp ER ratio [4] | IC50 [5] | hERG inhibition (%) at 3 μM [6] | % Decrease in Abeta 1-42 at 8 h post dosing compared to own baseline ([3]; single dose 0.31 mg/kg) | % Decrease in Abeta 1-42 at 24 h(a) or 25 h(b) post dosing compared to own baseline ([3]; single dose 0.31 mg/kg) | % Decrease in Abeta 1-42 at 8 h post dosing compared to own baseline ([3]; single dose 0.63 mg/kg) | % Decrease in Abeta 1-42 at 24 h(a) or 25 h(b) post dosing compared to own baseline ([3]; single dose 0.63 mg/kg) | % Decrease in Abeta 1-42 at 8 h post dosing compared to own baseline ([3]; single dose 1.25 mg/kg) | % Decrease in Abeta 1-42 at 24 h(a) or 25 h(b) post dosing compared to own baseline ([3]; single dose 1.25 mg/kg)
C[C@@H]1OC[C@H]2OC(N)=N[C@](CF)(c3cc(NC(=O)c4cnc(OCF)cn4)ccc3F)[C@@H]12 | 17.8 | 19.1 nM | 86% | −37% | −68% | −30% | 3.8 | 339 nM | 10.4% | – | – | – | – | – | –
CC[C@@H]1OC[C@H]2OC(N)=N[C@](CF)(c3cc(NC(=O)c4cnc(OCF)cn4)ccc3F)[C@@H]12 | 32.4 | 9.55 nM | 78% | – | – | – | 3.4 | 309 nM | 21.9% | – | – | – | – | – | –
C[C@]1(c2cc(NC(=O)c3cnc(OCF)cn3)ccc2F)N=C(N)O[C@@H]2CO[C@@H](C(F)(F)F)[C@@H]21 | 50.3 | 39.8 nM | 103% | – | – | – | 3.4 | 2000 nM | 32% | – | – | – | – | – | –
C[C@]1(c2cc(NC(=O)c3cnc(OCF)cn3)ccc2F)N=C(N)O[C@@H]2CCOC[C@@]21F | 12.3 | 12.3 nM | – | – | – | – | – | 151 nM | – | – | – | – | – | – | –
C[C@H]1OC[C@H]2[C@@H]1OC(N)=N[C@]2(CF)c1cc(NC(=O)c2cnc(OCF)cn2)ccc1F | 25.7 | 3.8 nM | 69% | – | – | – | 3.6 | 97.7 nM | 8.4% | −64% | −33% | −70% | −31% | −78% | −46%
C[C@]1(c2cc(NC(=O)c3cnc(OCF)cn3)ccc2F)N=C(N)O[C@@H]2CO[C@@H](C(F)(F)CF)[C@@H]21 | 67.7 | 14.1 nM | – | – | – | – | – | 955 nM | – | – | – | – | – | – | –
